Where two headings read alike, the source gives them in different places.
Columns and labels:
[1] = target: T1, human insulin receptor (HIR) (Homo sapiens, UniProt P06213); test: 125I-insulin competition binding assay on solubilised purified receptor
T1 construct: made in house

The chains behind the UniProt entries cited, without tags or fusion partners. Residues count along the entry.
UniProt P06213, 28-758 limits assumed: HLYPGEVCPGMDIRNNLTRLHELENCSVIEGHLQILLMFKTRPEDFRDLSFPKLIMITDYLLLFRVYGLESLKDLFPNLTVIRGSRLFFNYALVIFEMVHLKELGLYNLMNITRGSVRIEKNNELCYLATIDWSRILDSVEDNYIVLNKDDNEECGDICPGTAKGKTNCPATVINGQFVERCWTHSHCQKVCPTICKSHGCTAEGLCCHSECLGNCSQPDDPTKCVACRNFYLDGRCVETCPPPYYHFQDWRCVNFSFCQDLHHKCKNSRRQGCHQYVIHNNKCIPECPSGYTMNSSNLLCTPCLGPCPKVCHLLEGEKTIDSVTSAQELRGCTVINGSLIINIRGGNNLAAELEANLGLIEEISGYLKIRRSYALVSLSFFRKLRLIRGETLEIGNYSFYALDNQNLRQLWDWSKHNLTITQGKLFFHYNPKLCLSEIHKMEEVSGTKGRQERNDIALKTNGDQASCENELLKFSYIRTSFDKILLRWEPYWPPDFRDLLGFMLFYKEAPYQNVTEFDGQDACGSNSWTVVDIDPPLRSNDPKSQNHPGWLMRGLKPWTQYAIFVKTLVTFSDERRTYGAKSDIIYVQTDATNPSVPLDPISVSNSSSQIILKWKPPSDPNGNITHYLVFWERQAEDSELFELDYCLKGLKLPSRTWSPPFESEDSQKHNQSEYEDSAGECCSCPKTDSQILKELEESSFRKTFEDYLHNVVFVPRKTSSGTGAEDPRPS
UniProt P06213, 763-1382 limits assumed: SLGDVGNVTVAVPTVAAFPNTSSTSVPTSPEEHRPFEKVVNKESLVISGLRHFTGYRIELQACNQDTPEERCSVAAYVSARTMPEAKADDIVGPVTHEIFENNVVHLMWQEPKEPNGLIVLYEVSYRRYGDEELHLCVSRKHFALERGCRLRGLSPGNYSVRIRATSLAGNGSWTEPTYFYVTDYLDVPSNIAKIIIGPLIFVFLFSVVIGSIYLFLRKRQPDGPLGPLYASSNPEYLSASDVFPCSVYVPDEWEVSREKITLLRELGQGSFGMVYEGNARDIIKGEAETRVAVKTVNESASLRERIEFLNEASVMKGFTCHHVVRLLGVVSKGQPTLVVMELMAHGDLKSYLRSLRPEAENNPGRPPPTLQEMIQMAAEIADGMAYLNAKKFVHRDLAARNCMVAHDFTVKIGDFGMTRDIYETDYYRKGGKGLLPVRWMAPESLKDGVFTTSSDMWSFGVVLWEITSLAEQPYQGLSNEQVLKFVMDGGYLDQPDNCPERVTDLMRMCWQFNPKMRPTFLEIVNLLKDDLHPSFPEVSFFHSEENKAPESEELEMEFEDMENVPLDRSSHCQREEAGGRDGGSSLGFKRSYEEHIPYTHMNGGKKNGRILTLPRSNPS
UniProt P08069, 741-1367 limits assumed: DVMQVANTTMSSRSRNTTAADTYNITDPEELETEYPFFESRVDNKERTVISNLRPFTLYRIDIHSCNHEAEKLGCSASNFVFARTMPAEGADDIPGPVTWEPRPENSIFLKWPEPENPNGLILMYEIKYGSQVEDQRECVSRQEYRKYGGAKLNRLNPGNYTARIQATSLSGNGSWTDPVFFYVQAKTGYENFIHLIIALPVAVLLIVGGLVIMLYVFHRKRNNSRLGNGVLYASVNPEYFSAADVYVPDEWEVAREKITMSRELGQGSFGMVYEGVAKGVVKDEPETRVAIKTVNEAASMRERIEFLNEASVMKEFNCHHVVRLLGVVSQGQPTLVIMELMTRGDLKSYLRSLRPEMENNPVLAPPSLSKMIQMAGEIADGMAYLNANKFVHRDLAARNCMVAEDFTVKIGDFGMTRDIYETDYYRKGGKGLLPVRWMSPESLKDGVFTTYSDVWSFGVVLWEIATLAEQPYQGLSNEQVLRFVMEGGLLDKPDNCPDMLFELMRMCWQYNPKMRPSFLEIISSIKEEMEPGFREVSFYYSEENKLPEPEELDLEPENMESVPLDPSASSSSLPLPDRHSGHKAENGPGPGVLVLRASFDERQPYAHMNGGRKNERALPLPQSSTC
UniProt P08069, 31-736 limits assumed: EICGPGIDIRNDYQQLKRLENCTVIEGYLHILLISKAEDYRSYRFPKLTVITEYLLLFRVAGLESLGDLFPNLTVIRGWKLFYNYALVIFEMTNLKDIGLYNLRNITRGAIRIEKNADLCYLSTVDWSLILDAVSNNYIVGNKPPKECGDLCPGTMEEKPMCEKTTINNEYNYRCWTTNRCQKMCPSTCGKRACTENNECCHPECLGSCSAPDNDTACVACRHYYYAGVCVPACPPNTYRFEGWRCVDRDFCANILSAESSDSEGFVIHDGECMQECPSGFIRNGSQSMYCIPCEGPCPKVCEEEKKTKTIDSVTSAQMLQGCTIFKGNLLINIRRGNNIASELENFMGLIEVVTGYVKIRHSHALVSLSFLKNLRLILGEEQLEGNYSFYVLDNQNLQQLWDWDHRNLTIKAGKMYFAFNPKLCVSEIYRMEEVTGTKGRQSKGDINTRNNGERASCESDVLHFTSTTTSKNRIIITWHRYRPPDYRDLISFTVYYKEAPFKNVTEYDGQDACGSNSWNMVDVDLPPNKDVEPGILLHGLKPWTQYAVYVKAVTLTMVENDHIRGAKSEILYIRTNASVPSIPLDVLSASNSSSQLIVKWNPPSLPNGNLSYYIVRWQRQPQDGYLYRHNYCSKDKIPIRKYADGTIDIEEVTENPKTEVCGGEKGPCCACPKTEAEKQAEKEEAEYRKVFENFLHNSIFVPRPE

[2] = target: human IGF-1 receptor (HIGF-1R) (Homo sapiens, UniProt P08069); test: 125I-IGF-1 competition binding assay on solubilised purified receptor

| Compound | Kd [2] [µM] | other results |
| --- | --- | --- |
| CSCC[C@H](NC(=O)[C@H](CC(C)C)NC(=O)[C@H](CCCNC(=N)N)NC(=O)[C@H](CC(=O)O)NC(=O)[C@H](CC(C)C)NC(=O)[C@H](C)NC(=O)[C@H](CC(=O)O)NC(=O)[C@@H](N)CC(C)C)C(=O)N[C@@H](CCCNC(=N)N)C(=O)N[C@@H](Cc1ccc(O)cc1)C(=O)N[C@@H](Cc1ccccc1)C(=O)N[C@@H](CCC(=O)O)C(=O)N[C@@H](CCC(=O)O)C(=O)N[C@@H](CCCNC(=N)N)C(=O)N1CCC[C@H]1C(=O)N[C@@H](CO)C(=O)N[C@@H](CC(C)C)C(N)=O [Clone S173] |  | Kd ([1]; read-out: HIR affinity): 1.2 µM |
| CC(C)C[C@H](NC(=O)[C@H](C)NC(=O)[C@H](CO)NC(=O)[C@H](CCC(=O)O)NC(=O)[C@H](Cc1ccccc1)NC(=O)[C@H](Cc1c[nH]c2ccccc12)NC(=O)[C@H](CCC(=O)O)NC(=O)[C@H](Cc1ccc(O)cc1)NC(=O)[C@H](Cc1ccccc1)NC(=O)[C@@H](NC(=O)CNC(=O)CNC(=O)CNC(=O)[C@H](CCCNC(=N)N)NC(=O)[C@@H](N)CCCCN)[C@@H](C)O)C(=O)N[C@@H](CCCNC(=N)N)C(=O)N[C@@H](CCCCN)C(=O)N[C@@H](Cc1c[nH]cn1)C(=O)NCC(=O)N[C@@H](C)C(=O)NCC(=O)N[C@@H](CCCCN)C(=O)N[C@@H](CCCCNC(=O)CCCC[C@@H]1SC[C@@H]2NC(=O)N[C@@H]21)C(N)=O [Clone D110] | 1.4 |  |
| CC[C@H](C)[C@H](NC(=O)[C@@H](N)CCCCN)C(=O)NCC(=O)NCC(=O)N[C@@H](CCC(N)=O)C(=O)NCC(=O)N[C@@H](CCC(N)=O)C(=O)N[C@@H](Cc1c[nH]cn1)C(=O)N[C@@H](CCC(N)=O)C(=O)N[C@@H](CC(=O)O)C(=O)NCC(=O)N[C@@H](CC(N)=O)C(=O)N[C@@H](Cc1ccccc1)C(=O)N[C@@H](Cc1ccc(O)cc1)C(=O)N[C@@H](CC(=O)O)C(=O)N[C@@H](Cc1c[nH]c2ccccc12)C(=O)N[C@@H](Cc1ccccc1)C(=O)N[C@H](C(=O)N[C@@H](CCC(=O)O)C(=O)N[C@@H](C)C(=O)N[C@@H](CC(C)C)C(=O)N[C@@H](C)C(=O)N[C@@H](CCCCN)C(=O)N[C@@H](CCCCNC(=O)CCCC[C@@H]1SC[C@@H]2NC(=O)N[C@@H]21)C(N)=O)C(C)C [Clone D101] |  | Kd ([1]; read-out: Kd (µM) HIR): 0.51 µM |
| CSCC[C@H](NC(=O)[C@H](CCCNC(=N)N)NC(=O)[C@H](CCC(=O)O)NC(=O)[C@@H]1CCCN1C(=O)[C@H](CC(=O)O)NC(=O)[C@@H](N)CCCCN)C(=O)N[C@@H](CCC(N)=O)C(=O)N[C@@H](CO)C(=O)N[C@@H](CC(=O)O)C(=O)N[C@H](C(=O)NCC(=O)N[C@@H](Cc1ccccc1)C(=O)N[C@@H](Cc1ccc(O)cc1)C(=O)N[C@@H](CCC(=O)O)C(=O)N[C@@H](Cc1c[nH]c2ccccc12)C(=O)N[C@@H](Cc1ccccc1)C(=O)N[C@@H](CCCNC(=N)N)C(=O)N[C@@H](C)C(=O)N[C@@H](C)C(=O)N[C@H](C(=O)NCC(=O)N[C@@H](CCCCN)C(=O)N[C@@H](CCCCNC(=O)CCCC[C@@H]1SC[C@@H]2NC(=O)N[C@@H]21)C(N)=O)C(C)C)C(C)C [Clone D111] | 3.2 |  |
